Assay results: patent US20040076622A1, “Local production and/or delivery of anti-cancer agents by stromal cell precursors” (Board of Regents, The University of Texas System, priority 2002, published 2004)

What was measured:
[1] = Serum IFN-β levels after intraperitoneal injection; type: in vivo, mouse; details: intraperitoneal injection of 40,000 IU
SKOV-3 ovarian carcinoma = assay: Intraperitoneal ovarian carcinoma xenograft in SCID mice; type: in vivo, mouse; details: SKOV-3 mice; MSC-IFN-β five weekly ip injections of 5×10^5; IFN-β 40,000 IU ip daily day 15-48
OVAR-3 ovarian carcinoma = assay: as above; type: in vivo, mouse; details: OVAR-3 mice; MSC-IFN-β five weekly ip injections of 5×10^5; IFN-β 40,000 IU ip daily day 15-48
A375SM melanoma [2] = assay: Subcutaneous co-injection of A375SM melanoma cells and IFN-β-MSC in nude mice; type: in vivo, mouse; details: sc 5×10^4 IU every other day
A375SM melanoma [3] = assay: Established A375SM melanoma pulmonary metastasis model, survival; type: in vivo, mouse; details: daily subcutaneous injections of 40,000 IU
OVAR-3 cells = details: 5 days, MTS
MDA 231 breast carcinoma = MDA 231 breast carcinoma lung metastasis model in SCID mice; type: in vivo, mouse; details: three iv doses of 10^6 MSC-IFN-β or MSC-Gal; IFN-β 100,000 IU sc every other day
SKOV-3 cells = details: 5 days, MTS
Hey cells = details: 5 days, MTS
CML blasts = assay: Growth of circulating CML blasts from patients; type: cell-based, human; details: blasts from 2 CML patients; 1000 U Intron A, or induced MSC
KBM5 leukemia = assay: KBM5 xenograft model of CML in SCID mice, survival; type: in vivo, mouse; details: 3 times weekly injections; not statistically significant to controls
K562 = assay: Growth of CML cell lines with Intron A or on IFN-α expressing MSC; type: cell-based; details: 1000 U Intron A, or coculture on induced MSC
MHC class I expression = assay: MHC class I upregulation in CML patient samples; type: cell-based, human; details: grown with Intron A, or co-cultured on induced MSC feeder layer
BV173 = assay: Growth of CML cell lines with Intron A or on IFN-α expressing MSC; type: cell-based; details: 1000 U Intron A, or coculture on induced MSC

Substance	Time to return of serum IFN-β to baseline levels [1]	Tumor growth and survival (SKOV-3 ovarian carcinoma)	Tumor growth and survival (OVAR-3 ovarian carcinoma)	Effect on tumor growth and survival (A375SM melanoma [2])	Effect on tumor growth and survival (A375SM melanoma [2]; listed as INF-β)	Survival (log rank versus untreated) (A375SM melanoma [3])	IC50, inhibition of proliferation (OVAR-3 cells)	Survival versus untreated controls (MDA 231 breast carcinoma)	IC50, inhibition of proliferation (SKOV-3 cells)	IC50, inhibition of proliferation (Hey cells)	Growth of CML blasts (CML blasts)	Extension of mice survival (KBM5 leukemia)	Growth of K562 cells (K562)	MHC class I expression in patient samples (MHC class I expression)	Growth of BV173 cells (BV173)
IFN-β: recombinant interferon-beta (Avonex, Biogen, Inc.)	≤ 24 h	increased survival slightly as well (p=0.0343)	also had an effect	did not have any effect on tumor growth or survival	had no effect	no significant effect on survival	5 IU/ml	no effect on survival	100 IU/ml	1000 IU/ml	–	–	–	–	–
Intron A: pharmacy grade recombinant IFN-α (Intron A, Plough Schering)	–	–	–	–	–	–	–	–	–	–	growth inhibited at a similar rate	2-to-5 days	growth inhibited	upregulate Class I	growth inhibited
